{
  "sequences": {"note": "Amino acid sequences for entries named in this document (tags omitted). A change or cut given only in a name is not applied to a line headed by its entry.", "UniProt P29477": "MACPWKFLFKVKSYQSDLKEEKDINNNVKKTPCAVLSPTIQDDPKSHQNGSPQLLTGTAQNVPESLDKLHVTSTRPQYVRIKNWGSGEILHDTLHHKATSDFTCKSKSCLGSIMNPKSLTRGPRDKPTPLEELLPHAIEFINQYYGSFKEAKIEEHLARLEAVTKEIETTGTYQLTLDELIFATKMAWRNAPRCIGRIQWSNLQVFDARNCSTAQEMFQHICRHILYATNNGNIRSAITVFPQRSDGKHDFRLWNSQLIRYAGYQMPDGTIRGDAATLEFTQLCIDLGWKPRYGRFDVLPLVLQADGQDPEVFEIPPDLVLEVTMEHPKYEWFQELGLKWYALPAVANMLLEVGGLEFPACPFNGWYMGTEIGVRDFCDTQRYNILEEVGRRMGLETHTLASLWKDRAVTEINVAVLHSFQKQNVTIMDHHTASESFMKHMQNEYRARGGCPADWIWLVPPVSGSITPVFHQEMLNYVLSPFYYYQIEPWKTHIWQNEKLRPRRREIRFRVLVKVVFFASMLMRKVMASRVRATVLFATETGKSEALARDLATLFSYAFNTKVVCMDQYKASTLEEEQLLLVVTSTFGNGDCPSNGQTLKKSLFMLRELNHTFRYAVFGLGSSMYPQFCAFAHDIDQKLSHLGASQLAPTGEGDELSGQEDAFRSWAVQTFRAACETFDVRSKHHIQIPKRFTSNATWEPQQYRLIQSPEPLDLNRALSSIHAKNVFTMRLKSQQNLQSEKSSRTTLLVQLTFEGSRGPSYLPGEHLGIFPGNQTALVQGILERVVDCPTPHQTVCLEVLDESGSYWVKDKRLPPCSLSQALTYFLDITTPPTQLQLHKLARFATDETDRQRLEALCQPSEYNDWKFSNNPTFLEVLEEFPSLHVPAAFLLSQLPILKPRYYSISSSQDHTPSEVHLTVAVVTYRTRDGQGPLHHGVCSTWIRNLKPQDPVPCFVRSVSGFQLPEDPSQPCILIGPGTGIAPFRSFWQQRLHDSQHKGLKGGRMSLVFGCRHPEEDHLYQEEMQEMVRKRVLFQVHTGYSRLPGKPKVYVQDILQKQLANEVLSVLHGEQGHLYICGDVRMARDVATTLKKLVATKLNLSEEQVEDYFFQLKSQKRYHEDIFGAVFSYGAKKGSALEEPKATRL"},
  "source": "patent US20020032325A1",
  "about": "“4-amino-3-mercapto-1,2,4-triazoles” (priority 1999, published 2002)",
  "molecular_target": "nitric oxide synthase (Mus musculus, UniProt P29477)",
  "assay": "NOS inhibition assay: nitric oxide (nitrite, Greiss reagent) production from PAM 212 keratinocytes stimulated with gamma interferon",
  "type": "cell-based",
  "conditions": "read-out: IC50, NOS inhibition (nitric oxide production), 100 U/ml gamma interferon, 72 hours, nitrite in medium",
  "note": "pIC50: −log10 of the molar value.",
  "data": [
    {"molecule": "CC(CCCl)Sc1nnc(-c2cccs2)n1N", "note": "(stereo not shown)", "values": [
      {"measurement": "pIC50", "result": "< 4.00"}
    ]}
  ]
}
